{"source": "ChEMBL document CHEMBL5375988", "about": "“AcGlcAs: A Novel P53-Targeting Arsenical with Potent Cellular Uptake and Cancer Cell Selectivity” (J Med Chem, 2023)", "tested_on": "NB-4", "experiment": "Antiproliferative activity against human NB4 cells expressing PML/RARalpha assessed as cell growth inhibition measured after 48 hrs by CCK-8 assay"}
{"smiles": "Cl[As](Cl)Cl", "values": [{"measurement": "IC50", "result": 1750, "unit": "nM"}]}
